Experimental data reported in paper PMC11997999, “Uncovering α-Selectivity for Liver X Receptor Agonists for Lipotoxic Cancer Therapies” (Journal of Medicinal Chemistry, 2025).

Amino acid sequences for entries named in this document (tags omitted). Residues count along the entry.
UniProt Q13133, 209-447 limits assumed: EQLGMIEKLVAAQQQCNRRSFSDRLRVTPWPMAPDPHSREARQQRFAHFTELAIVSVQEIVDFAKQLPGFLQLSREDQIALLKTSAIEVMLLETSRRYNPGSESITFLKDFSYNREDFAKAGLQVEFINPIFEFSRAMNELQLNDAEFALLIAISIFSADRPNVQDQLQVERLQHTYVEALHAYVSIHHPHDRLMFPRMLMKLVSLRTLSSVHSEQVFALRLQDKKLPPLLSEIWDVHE

Biological target: T1, LXRα LBD (GST) (Homo sapiens, UniProt Q13133)
T1 construct: 5 nM LXRα LBD (GST); 10 nM LXRβ LBD (GST); purchased ThermoFisher Scientific PV4655
Assay: Time-resolved LXR FRET assay (LanthaScreen TR-FRET LXRα Coactivator Assay Kit)
Assay type: biochemical
Protocol: The biochemical TR-FRET assays were performed using the LanthaScreen TR-FRET LXRα Coactivator Assay Kit, goat (ThermoFisher Scientific, PV4655), and the LanthaScreen TR-FRET LXRβ assay kit, goat (ThermoFisher Scientific, PV4658), according to the manufacturer’s instructions using the following concentrations: 5 nM LXRα LBD (GST); 10 nM LXRβ LBD (GST); 500 nM fluorescein-TRAP220/DRIP-2; 200 nM fluorescein-D22; 10 nM Tb anti-GST antibody. The TR-FRET signals were measured after 6 h using a TECAN SPARK multimode microplate reader with the following settings: first excitation wavelength: 360 nm (bandwidth 35 nm), first emission wavelength: 485 nm (bandwidth 20 nm); second excitation wavelength: 360 nm (bandwidth 35 nm), second emission wavelength: 535 nm (bandwidth 25 nm); integration time: 200 μs; lag time: 100 μs; settle time: 0 ms.

selectivity for LXRα over LXRβ (TR-FRET EC50): 4 fold
Structure (SMILES): CC(C)(C)N1C(=O)C(Nc2ccc(N3CCCCC3)cc2)=C(c2ccccc2)C1=O [Compound 51, 1-(tert-Butyl)-3-phenyl-4-((4-(piperidin-1-yl)phenyl)amino)-1H-pyrrole-2,5-dione]
